Consider one substance from patent US12178841B2 (dated 2024).

The conditions of series [1]: summary of product characteristics for Promixin; cited from earlier work.

Consider colistimethate sodium, for which the “development of colistimethate resistance (in words)” value in the series with Pseudomonas aeruginosa (active vs placebo groups) is listed as “no data suggestive of development of colistimethate resistance”. Moreover, the “development of P. aeruginosa resistance to colistin sulphate (antibiotic resistance)” value with Pseudomonas aeruginosa (patients on CMS treatment) came out at 1%. In addition, the “P. aeruginosa acquiring resistance to colistimethate sodium during clinical use” value in series [1] is on record as “reports of P. aeruginosa acquiring resistance”.
